Test results taken from US7517885B2, “Substituted [4-(4-phenyl-piperazin-1-yl)-cyclohexyl]-urea compounds” (Janssen Pharmaceutica N.V., priority 2005, dated 2009).

Amino acid sequences for entries named in this document (tags omitted).
UniProt P35368, whole entry: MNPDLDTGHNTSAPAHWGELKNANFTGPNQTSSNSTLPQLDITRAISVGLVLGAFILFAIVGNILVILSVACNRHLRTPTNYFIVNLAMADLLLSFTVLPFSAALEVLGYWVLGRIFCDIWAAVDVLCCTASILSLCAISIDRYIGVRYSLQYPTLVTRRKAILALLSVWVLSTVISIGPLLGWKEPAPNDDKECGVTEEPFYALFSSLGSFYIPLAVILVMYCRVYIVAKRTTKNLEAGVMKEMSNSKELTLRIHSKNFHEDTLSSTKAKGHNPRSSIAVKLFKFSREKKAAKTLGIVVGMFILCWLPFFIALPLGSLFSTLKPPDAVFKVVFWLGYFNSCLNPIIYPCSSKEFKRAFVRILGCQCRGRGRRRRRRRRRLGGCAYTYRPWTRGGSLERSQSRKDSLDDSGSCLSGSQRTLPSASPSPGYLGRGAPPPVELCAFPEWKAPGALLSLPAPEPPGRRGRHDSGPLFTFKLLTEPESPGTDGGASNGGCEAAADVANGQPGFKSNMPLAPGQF
UniProt P25100, whole entry: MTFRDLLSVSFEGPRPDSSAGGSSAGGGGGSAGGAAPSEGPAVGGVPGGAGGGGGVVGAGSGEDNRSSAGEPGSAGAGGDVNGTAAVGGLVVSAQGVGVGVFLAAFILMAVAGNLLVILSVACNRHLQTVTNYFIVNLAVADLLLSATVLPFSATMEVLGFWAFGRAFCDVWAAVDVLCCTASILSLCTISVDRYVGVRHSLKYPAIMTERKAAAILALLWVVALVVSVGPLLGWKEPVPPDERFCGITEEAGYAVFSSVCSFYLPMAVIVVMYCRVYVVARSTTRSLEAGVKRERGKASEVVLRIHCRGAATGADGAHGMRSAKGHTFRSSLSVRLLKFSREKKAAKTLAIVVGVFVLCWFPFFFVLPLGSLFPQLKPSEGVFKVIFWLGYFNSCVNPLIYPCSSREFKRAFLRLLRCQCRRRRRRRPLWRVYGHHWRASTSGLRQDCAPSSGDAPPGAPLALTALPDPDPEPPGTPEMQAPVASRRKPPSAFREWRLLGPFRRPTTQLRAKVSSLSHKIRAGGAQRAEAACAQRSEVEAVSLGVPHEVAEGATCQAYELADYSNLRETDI

Molecular target: T1, α1b-AR (Homo sapiens, UniProt P35368)
T1 construct: expressed in transfected cells; host or cells: COS-7 cells (membranes)
Assay: α1-Adrenergic Receptor Binding Assay (125I-HEAT radio-ligand), α1b subtype
Settings: membranes of COS-7 cells transfected with α1b subtype; 125I-HEAT 50 pM; rt 1 hr
Experimental: (§1) α1-Adrenergic Receptor Binding Assay
(§2) Preparation of COS Cell Membranes
(§3) Membranes were prepared from COS-7 cells (African Green monkey kidney SV40-transformed cells) that had been transfected with one of the three α1-AR subtypes (Genbank accession number for the α1a subtype: AF013261; Genbank accession number for the α1b subtype: NM000679; Genbank accession number for the α1d subtype: NM000678) using the following method: COS cells from ten 100 mm tissue culture plates were scraped into a 5 mL volume of TE (a mixture of 50 mM Tris-HCl, 5 mM EDTA, pH 7.4). The cell suspension was disrupted with a Brinkman Polytron (at a setting of 8) for 10 sec. The disrupted cells were centrifuged at 1000×g min at 4° C. Supernatants were centrifuged at 34,500×g for 20 min at 4° C. The membrane pellets were suspended in a 2 mL volume of TNE (a mixture of 50 mM Tris-HCl, 5 mM EDTA and 150 mM NaCl at pH 7.4). An aliquot of the membrane suspension was stored at −70° C. until use. The protein concentration was determined using the BioRad “DC” protein assay kit following membrane solubilization with Triton X-100.
(§4) Radio-Ligand Binding Assay
(§5) Triplicate determinations of radio-ligand binding in the presence of increasing concentrations of testing compound were made. The reagents were added to 96-well polypropylene plate wells. […] The plate was incubated at rt for 1 hr. The contents of the wells were filtered through a glass filter (type C) (GF/C) membrane Unifilter plate (Packard Instruments) using the Packard Filtermate cell harvester. The filter plates were dried in a vacuum oven for 30 min at 40° C. 25 μL Microscint 20 liquid scintillation fluid (Packard Instruments) was added to each well. The radioactive content was analyzed in the TopCount microplate scintillation counter (Packard Instruments).

Compound	Ki
COc1ccc(NC(=O)N[C@H]2CC[C@@H](N3CCN(c4ccccc4OC(C)C)CC3)CC2)c(OC)c1 [Cpd 3, 1-(2,4-dimethoxy-phenyl)-r-3-{c-4-[4-(2-isopropoxy-phenyl)-piperazin-1-yl]-cyclohexyl}-urea]	475 nM
COc1ccc(NC(=O)N[C@H]2CC[C@H](N3CCN(c4ccccc4OC(C)C)CC3)CC2)c(OC)c1 [Cpd 4, 1-(2,4-dimethoxy-phenyl)-r-3-{t-4-[4-(2-isopropoxy-phenyl)-piperazin-1-yl]-cyclohexyl}-urea]	214 nM
CC(C)Oc1ccccc1N1CCN([C@H]2CC[C@H](NC(=O)Nc3cccc(Cl)c3)CC2)CC1 [Cpd 12, 1-(3-chloro-phenyl)-r-3-{t-4-[4-(2-isopropoxy-phenyl)-piperazin-1-yl]-cyclohexyl}-urea]	70.8 nM
CC(C)Oc1ccccc1N1CCN([C@H]2CC[C@H](NC(=O)Nc3c(Cl)cccc3Cl)CC2)CC1 [Cpd 14, 1-(2,6-dichloro-phenyl)-r-3-{t-4-[4-(2-isopropoxy-phenyl)-piperazin-1-yl]-cyclohexyl}-urea]	50.1 nM
COc1ccc(Cl)cc1NC(=O)N[C@H]1CC[C@@H](N2CCN(c3ccccc3OC(C)C)CC2)CC1 [Cpd 18, 1-(5-chloro-2-methoxy-phenyl)-r-3-{c-4-[4-(2-isopropoxy-phenyl)-piperazin-1-yl]-cyclohexyl}-urea]	207 nM
COc1ccc(Cl)cc1NC(=O)N[C@H]1CC[C@H](N2CCN(c3ccccc3OC(C)C)CC2)CC1 [Cpd 19, 1-(5-chloro-2-methoxy-phenyl)-r-3-{t-4-[4-(2-isopropoxy-phenyl)-piperazin-1-yl]-cyclohexyl}-urea]	81 nM

Molecular target: T2, α1d-AR (Homo sapiens, UniProt P25100)
T2 construct: expressed in transfected cells; host or cells: COS-7 cells (membranes)
Assay: α1-Adrenergic Receptor Binding Assay (125I-HEAT radio-ligand), α1d subtype
Settings: membranes of COS-7 cells transfected with α1d subtype; 125I-HEAT 50 pM; rt 1 hr
Experimental: as §1, §2, §3, §4, §5

Compound	Ki
COc1ccccc1NC(=O)N[C@H]1CC[C@@H](N2CCN(c3ccccc3OC(C)C)CC2)CC1 [Cpd 1, 1-{c-4-[4-(2-isopropoxy-phenyl)-piperazin-1-yl]-cyclohexyl}-r-3-(2-methoxy-phenyl)-urea]	73 nM
COc1ccccc1NC(=O)N[C@H]1CC[C@H](N2CCN(c3ccccc3OC(C)C)CC2)CC1 [Cpd 2, 1-{t-4-[4-(2-isopropoxy-phenyl)-piperazin-1-yl]-cyclohexyl}-r-3-(2-methoxy-phenyl)-urea]	8.7 nM
CC(C)Oc1ccccc1N1CCN([C@H]2CC[C@H](NC(=O)Nc3ccc(F)c(F)c3)CC2)CC1 [Cpd 8, 1-(3,4-difluoro-phenyl)-r-3-{t-4-[4-(2-isopropoxy-phenyl)-piperazin-1-yl]-cyclohexyl}-urea]	1.3 nM
CC(C)Oc1ccccc1N1CCN([C@H]2CC[C@@H](NC(=O)Nc3cccc(Cl)c3)CC2)CC1 [Cpd 11, 1-(3-chloro-phenyl)-r-3-{c-4-[4-(2-isopropoxy-phenyl)-piperazin-1-yl]-cyclohexyl}-urea]	29.8 nM
CC(C)Oc1ccccc1N1CCN([C@H]2CC[C@@H](NC(=O)Nc3c(Cl)cccc3Cl)CC2)CC1 [Cpd 13, 1-(2,6-dichloro-phenyl)-r-3-{c-4-[4-(2-isopropoxy-phenyl)-piperazin-1-yl]-cyclohexyl}-urea]	15.7 nM
CC(C)Oc1ccccc1N1CCN([C@H]2CC[C@@H](NC(=O)Nc3ccc(F)cc3F)CC2)CC1 [Cpd 22, 1-(2,4-difluoro-phenyl)-r-3-{c-4-[4-(2-isopropoxy-phenyl)-piperazin-1-yl]-cyclohexyl}-urea]	26.5 nM
CC(C)Oc1ccccc1N1CCN([C@H]2CC[C@H](NC(=O)Nc3ccc(F)cc3F)CC2)CC1 [Cpd 23, 1-(2,4-difluoro-phenyl)-r-3-{t-4-[4-(2-isopropoxy-phenyl)-piperazin-1-yl]-cyclohexyl}-urea]	2.7 nM
CC(C)Oc1ccccc1N1CCN([C@H]2CC[C@@H](NC(=O)Nc3c(F)cccc3F)CC2)CC1 [Cpd 26, 1-(2,6-difluoro-phenyl)-r-3-{c-4-[4-(2-isopropoxy-phenyl)-piperazin-1-yl]-cyclohexyl}-urea]	92 nM
CC(C)Oc1ccccc1N1CCN([C@H]2CC[C@H](NC(=O)Nc3c(F)cccc3F)CC2)CC1 [Cpd 27, 1-(2,6-difluoro-phenyl)-r-3-{t-4-[4-(2-isopropoxy-phenyl)-piperazin-1-yl]-cyclohexyl}-urea]	4.8 nM
